Laboratory results as given in ChEMBL document CHEMBL1135152, “Design, synthesis, and SAR of monobenzamidines and aminoisoquinolines as factor Xa inhibitors” (Bioorg Med Chem Lett, 2002).

Chains of the proteins cited; added tags and fusions are not shown. Residues count along the entry.
UniProt P00742, 41-179 limits assumed: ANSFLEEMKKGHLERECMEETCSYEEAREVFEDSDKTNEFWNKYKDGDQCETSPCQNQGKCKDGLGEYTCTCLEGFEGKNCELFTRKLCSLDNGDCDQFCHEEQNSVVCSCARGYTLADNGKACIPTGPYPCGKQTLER
UniProt P00742, 235-488 limits assumed: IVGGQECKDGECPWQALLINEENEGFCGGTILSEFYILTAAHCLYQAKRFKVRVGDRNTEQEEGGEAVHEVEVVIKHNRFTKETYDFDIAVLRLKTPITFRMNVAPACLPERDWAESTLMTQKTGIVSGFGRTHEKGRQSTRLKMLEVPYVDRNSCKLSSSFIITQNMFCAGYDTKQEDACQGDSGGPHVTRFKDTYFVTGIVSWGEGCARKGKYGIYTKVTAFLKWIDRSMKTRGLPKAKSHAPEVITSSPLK

Biological target: Coagulation factor X (Homo sapiens, UniProt P00742)
Assay: Tested in vitro for the inhibitory activity against Coagulation factor Xa

**Q.** How did the pIC50 turn out when CS(=O)(=O)Nc1ccc(C(=O)Nc2ccc(-c3ccccc3S(N)(=O)=O)cc2)c(Oc2cccc(C(=N)N)c2)c1 was run?
**A.** Its pIC50 is 7.51.

pIC50: −log10 of the molar value.
